In article PMC13288645, “A cryopreserved and in vivo-in vitro validated human induced pluripotent stem cell blood-brain barrier model for reliable neurotoxicity assessment” (NAM journal, 2025):

Assays:
[1] = source not stated; cited from earlier work
[2] = test system: hiPSC-derived blood-brain barrier model; assay: Permeability testing (apparent permeability Papp) in tricellular hiPSC-derived BBB model, 96-transwell; details: 96-transwell hiPSC-derived BBB, 60 min; 5 µM (17β-Estradiol 10 µM, Deltamethrin 3 µM)
BBB = details: cited from earlier work

## Buprenorphine
[1]
  LogP: 4.98
[2]
  in vitro apparent permeability Papp: > 15 × 10^–6 cm/s
BBB; human clinical PET, ref Ghazanfari et al. 2024, Le Roux et al. 2019
  In vivo human rate constant for compound transfer from blood across the BBB into brain (K1): 0.17 mL min^-1 cm^-3
BBB; human, ref Delforge et al., 1995, Le Roux et al., 2019, Zubieta et al., 2000
  human in vivo permeability K1 (elevated): > 0.1 mL cm^-3 min^-1
